Experimental data: patent US20100330200A1, “COMBINATION OF A RETINOID AND A PLATINUM ANTICANCER AGENT” (SIGMA-TAU INDUSTRIE FARMACEUTICHE RIUNITE S.P.A., priority 2006, published 2010)
Where “and” joins values, the source holds several entries; their conditions need not be identical. Identical values can stand only once.

Tested on: IGROV-1 ovarian carcinoma
Assay: s.c. growing IGROV-1 tumor, ST1926 doses and schedules

In the case of `O=C(O)/C=C/c1ccc(-c2ccc(O)c(C34CC5CC(CC(C5)C3)C4)c2)cc1` [ST1926, E-4-(3-(1-adamantyl)-4-hydroxyphenyl)cinnamic acid], the “Tox (No. of dead mice/total no. of mice)” value (15 mg/kg oral qdx2/wx2w) is reported as 0/4, the “Tox (No. of dead mice/total no. of mice)” value (15 mg/kg oral qdx5/wx3w) is reported as 0/4 and the “Tox (No. of dead mice/total no. of mice)” value (20 mg/kg oral qdx5/wx2w, 20 mg/kg) is reported as “lethal toxicity and 2/4”. For the same molecule, the “Tox (No. of dead mice/total no. of mice)” value (5 × 2 mg/kg oral qdx5/wx4w) was 0/4.
